Values of other authors in patent publication US6565840B1, “Monomeric compositions effective as wound closure devices” (Closure Medical Corporation, priority 1996, dated 2003).
This is a selection: effects in other tests are not listed, and their absence says nothing.

O=[N+]([O-])c1cc([N+](=O)[O-])c(O)c([N+](=O)[O-])c1
pKa: 0.3
